Measurements taken from BindingDB's records for doi:10.1016/S0960-894X(97)00090-5 (1997).

Assay: The concentration of compound required to prevent 50 percent of cells from adhering to MAdCAM-1

CC(=O)N[C@@H](CC(C)C)C(=O)N[C@@H](CC(=O)O)C(=O)N[C@H](C(=O)N[C@@H](CO)C(=O)N[C@@H](CC(C)C)C(N)=O)[C@@H](C)O [3-{1-[1-(1-carbamoyl-3-methylbutylcarbamoyl)-2-hydroxyethylcarbamoyl]-2-hydroxypropylcarbamoyl}-3-(3-methyl-1-methylcarboxamidobutylcarboxamido)propanoic acid]
IC50: 298 µM
